In US4485039A, “Synthetic analogues of α-melanotropin” (University Patents, Inc., priority 1982, dated 1984):

Tested on: chymotrypsin
Experiment: enzymatic stability on exposure to chymotrypsin
Conditions: chymotrypsin 0.1 units/ml

## [Half-Cys^4, half-Cys^10 ]-α-MSH
  period the compound remained stable: at least 4 hours
24 hours
  state after 24 hours: completely inactivated
